The text below walks through data of patent publication US11638712B2, “Bis(acetamidophenyl) guanidinophenylethylphosphonates for use in the prevention and/or treatment of PAR-related diseases” (Universiteit Antwerpen, priority 2016, dated 2023).

One assay deals with post-colitis rats. Briefly: post-colitis rat model for visceral pain, visceromotor response (VMR) to colorectal distension. The conditions noted are these: not tested; stated from correlation with matriptase, tryptase, cathepsin G IC50. As to the method: Male Sprague-Dawley rats (200-225 g; Charles River, Italy) were used in all experiments. Rats were housed at a constant room temperature (22±2° C.) and humidity (60%). The animals had unlimited access to water and food and were kept on a 12 h:12 h day-night cycle. They were allowed to acclimatize for at least 1 week before the start of the experiments.
In this set-up, a mild colitis was induced in the post-colitis group on day 0, using a TNBS-enema. The control group received an intrarectal administration with 0.9% NaCl. The presence of colitis was verified by a colonoscopy on day 3. From day 10 onwards, a colonoscopy was performed every 4 days to follow-up the healing of the colonic mucosa. […]
Electromyographic (EMG) electrodes were implanted into the external abdominal muscle and 3 days later, the VMR experiment was performed in conscious rats. […] The VMR was quantified using the area under the curve (AUC) of the EMG signal during the distension (20 s) corrected for the EMG signal before the distension (20 s).
22.0. The results of the VMR experiments analyzed using a Generalized Estimating Equations (GEE) test with Least Significant Difference (LSD) post-hoc test. […]
Visceral sensitivity was assessed using the visceromotor responses (VMRs) to a colorectal distension, shown in the graphs below as area under the curve (AUC; y-axis; μV.20 s-1) for each distension pressure (x-axis; mmHg). […]

The next assay concerns the target uPA (Homo sapiens, UniProt P00749). Briefly: in vitro serine protease inhibition profile: uPA. Format: biochemical.

SMILES strings stand for the structures.

A word on the IC50: it is the concentration that inhibits the measured activity by half.

As for `COC(=O)NC(Cc1ccc(NC(=N)N)cc1)P(=O)(Oc1ccc(NC(C)=O)cc1)Oc1ccc(NC(C)=O)cc1` (centres unmarked) [Compound 2], the “therapeutic effect in visceral pain, expected from IC50 correlation” value in the assay with post-colitis rats is reported as “will probably also show the same therapeutic effect”. Also, the midpoint of inhibition on uPA, the IC50, lay at 3 nM.
